Data published in patent US8257965B2, “Arrays of biological membranes and methods and use thereof” (Corning Incorporated, priority 2001, dated 2012).

Target: opioid receptor subtype δ2 (Homo sapiens, UniProt P41143)
Assay: BODIPY-FL-GTPγS functional assay on opioid receptor arrays
Conditions: 25 nM BODIPY-FL-GTPγS, 3 μM GDP, 90 minutes, in the presence of dynorphin A

dynorphin A
increase in basal level fluorescence: ~10 fold
